Results from US4018930A, “Substituted indolobenzazepines” (Endo Laboratories, Inc., priority 1975, dated 1977).
Counter-ions that a name gives are not always drawn.

Assays:
[1] = in vivo
[2] = system: mice; experiment: Phenylquinone Writhing (P.Q.W.) test, analgesic activity; assay type: in vivo, mouse; conditions: 0.5 h, po, read-out: P.Q.W. ED50 (analgesic ED50)
Description: The analgesic activity of the compounds of the present invention is conveniently determined in a phenylquinone writhing test, as described below:
Phenylquinone Writhing (P.Q.W.):
results given in: mg/kg po/mouse
Groups of at least 10 mice are given phenyl-p-benzoquinone 2.5 mg/kg intraperitoneally 30 minutes after oral administration of graded doses of the test substance. Two or more dose levels are used for each compound. For scoring purposes, a "writhe" is defined as stretching, twisting of a hindleg inward, or contraction of the abdomen. The total number of writhes for each animal, treated and control animals side-by-side, are counted over a 30-minute time interval. […] The P.Q.W. test is widely used as an indicator of potential analgesic activity in man, especially for non-narcotic substances.

[3] = system: mice; experiment: Decreased Locomotor Activity (L.M.A.), primary rodent screen; assay type: in vivo, mouse; conditions: po, read-out: L.M.A. ED50 (decreased locomotor activity)
[4] = system: mice; experiment: Ptosis (Pto.), primary rodent screen; assay type: in vivo, mouse; conditions: po, read-out: Pto. ED50 (ptosis)
[5] = Solubility in water; assay type: physicochemical
[6] = mouse, phenyl-p-benzoquinone 2.5 mg/kg ip 30 min after dose, 30-minute count
[7] = mouse, oral dose producing score of at least -1

Row | SMILES | LD50 [1] | ED50 [2, 6] | ED50 [3, 7] | ED50 ([4]; mouse, passive ptosis) | solubility in water [5] | ED50 ([3]; Mus musculus) | ED50 ([4]; Mus musculus) | ED50 ([2]; Mus musculus)
1 | CC(Cl)=CCN1CC[C@@H]2[C@@H](C1)c1cccc3c1N2c1ccccc1CC3 (racemic) [Example 1, (±)-trans-3-(3-chloro-2-butenyl)-1,2,3,4,4a,8,9,14a-octahydropyrido[4',3':2,3]indolo[1,7-ab][1]benzazepine] | > 300 mg/kg | 86 mg/kg | > 300 mg/kg | > 300 mg/kg |  |  |  | 
2 | CC(=O)CCN1CC[C@@H]2[C@@H](C1)c1cccc3c1N2c1ccccc1CC3 (racemic) [Example 6, (±)-4-(trans-1,2,3,4,4a,8,9,14a-octahydropyrido[4',3':2,3]indolo[1,7-ab][1]benzazepin-3-yl)-2-butanone] | > 324 mg/kg | 1.25 mg/kg | 8 mg/kg | 7.1 mg/kg |  |  |  | 
3 | CC(=O)CCCN1CC[C@@H]2[C@@H](C1)c1cccc3c1N2c1ccccc1CC3 (racemic) [Example 7, (±)-5-(trans-1,2,3,4,4a,8,9,14a-octahydropyrido[4',3':2,3]indolo[1,7-ab][1]benzazepin-3-yl)-2-pentanone] | > 324 mg/kg | 1.4 mg/kg | 2.6 mg/kg | 1.3 mg/kg |  |  |  | 
4 | O=C(CCN1CC[C@@H]2[C@@H](C1)c1cccc3c1N2c1ccccc1CC3)c1ccccc1 (racemic) [Example 8, (±)-3-(trans-1,2,3,4,4a,8,9,14a-octahydropyrido[4',3':2,3]indolo[1,7-ab][1]benzazepin-3-yl)propiophenone] | > 324 mg/kg | 26 mg/kg | 200 mg/kg | 20 mg/kg |  |  |  | 
5 | CC(=O)CN1CC[C@@H]2[C@@H](C1)c1cccc3c1N2c1ccccc1CC3 (relative stereo) [Example 3, (±)-trans-3-acetonyl-1,2,3,4,4a,8,9,14a-octahydropyrido[4',3':2,3]indolo[1,7-ab][1]benzazepipine] | > 300 mg/kg | 2 mg/kg | 2 mg/kg | 4 mg/kg |  |  |  | 
6 | c1ccc2c(c1)CCc1cccc3c4c(n-2c13)CCNC4 [1,2,3,8,9-hexahydropyrido[4',3':2,3]=indolo[1,7ab][1]benzazepine hydrochloride] |  |  |  |  | only very slightly soluble in water |  |  | 
7 | CN(C)CCCN1c2ccccc2Sc2ccc(Cl)cc21 [chlorpromazine (HCl), chlorpromazine, reference compound] |  |  |  |  |  | 5 mg/kg | 6 mg/kg | 
8 | COc1ccc2c3c1O[C@H]1[C@@H](O)C=C[C@H]4[C@@H](C2)N(C)CC[C@@]341 [codeine phosphate, reference compound] |  |  |  |  |  |  |  | 19 mg/kg
